Reference: US11364214B2, “Compositions and methods for treating eczema” (Dermala Inc., priority 2016, dated 2022)
Values after ≈ are worked out from the molar mass of the structure shown.

Key:
Format in all cases: cell-based
S. aureus (ATCC 29213) [1] = assay: Time-kill assay (bactericidal activity); conditions: 4× the determined MIC; 0.2 mg/ml porcine liver esterase; sampled at 0, 1, 5, 24 hours; FIG. 4
Experimental: This inoculum preparation was used for all experiments. Time-kill assay: A time-kill assay was performed to monitor the bactericidal activity of propionic acid (PA). […] Assays were performed in 100 μl volumes in 96-well plates and incubated at 37° C. in a sealed bag to prevent evaporation. […] Bacterial growth was determined by counting CFUs. […] Each drug was used at a concentration 4× the MIC value and 0.2 mg/ml porcine liver esterase. The assay was setup and evaluated as described above.

[2] = tested on: S. aureus strain 8325-4 and 5 clinical isolates of S. aureus from the skin of AD patients; assay: MIC and MBC of PA and PA derivatives in the presence/absence of keratinocyte lysates; conditions: 0-100 mM, 48 hours
S. aureus (ATCC 29213) [3] = assay: Minimal inhibitory concentration (MIC) assay, microbroth dilution (CLSI M100-S22); conditions: 10% DMSO, 16 hours at 37° C.

## CCC(=O)OCC(COC(=O)CC)OC(=O)CC [tri-PA, glyceryl tripropionate-tripropionin]
S. aureus (ATCC 29213) [1]
  time after which S. aureus is completely killed: 24 h
[2]
  antimicrobial properties against S. aureus (MIC, MBC): displaying both the anti-S. aureus and anti-inflammatory properties
S. aureus (ATCC 29213) [3]; 0.2 mg/ml porcine liver esterase
  MIC against S. aureus with esterase added: 7.5 mM
S. aureus (ATCC 29213) [3]; no esterase added, first well showing ≥90% reduction in growth
  MIC against S. aureus: 30 mM (≈ 7810 µg/mL)
